Reference: article PMC7179958, “Prediction of Clinical Transporter‐Mediated Drug–Drug Interactions via Comeasurement of Pitavastatin and Eltrombopag in Human Hepatocyte Models” (CPT: Pharmacometrics & Systems Pharmacology, 2020)

System: human hepatocytes
Assay: Uptake of pitavastatin and eltrombopag in cryopreserved human hepatocytes (oil spin method), comeasurement, micro‐rate constant mechanistic model
Format: in vitro ADME
Experimental: Human hepatocytes were obtained from BioIVT (Brussels, Belgium; lot number: LYB; 10 donor LiverPool (8 Caucasians, 1 African American, and 1 Hispanic) and thawed according to supplier guidelines in Leibovitz L15 medium. Hepatocytes were kept on ice prior to use and were used within 3 hours of defrosting.
Hepatocytes (viability 84–87%) were preincubated in Leibovitz L15 medium at 1.5 × 10^6 cells for 15 minutes at 37 °C with either 0.1% DMSO or 45 nmol/mL eltrombopag. Incubations were started by the addition of pitavastatin (0.3–100 nmol/mL, 1 × 10^6 cells, 0.35% DMSO, 30 nmol/mL eltrombopag final), and 100 µL samples taken at 0.25–30 minutes. Cells were separated using an oil spin method similar to the literature. ^11 , ^17 After separation, the tubes were frozen on dry ice and the bottom layer was cut off. Pitavastatin and eltrombopag were extracted in a stop solution prior to ultra‐performance liquid chromatography–high‐resolution mass spectrometry analysis (see the Supplemental Material for full experimental and sample extraction methods).
The bottom layer concentrations of pitavastatin and eltrombopag were converted to a cellular concentration using a cellular volume (V cell) of 3 µL/1 × 10^6 human hepatocytes: ^18 (1) cellnmol/mL=Bottom layer×15.3μL/Vcell/100 where V cell /1 × 10^5 cells was 0.3 µL, and the volume of the bottom layer of cesium chloride was 15 µL. A dilution factor of 100 was used to scale from pmol/mL/1 × 10^5 cells to nmol/mL/1 × 10^6 cells.
The final chosen mechanistic model (model 1 with the comeasurement of pitavastatin and eltrombopag; Table 1 ) was based on the outcome of the structural identifiability analysis and goodness‐of‐fit statistics (Bayesian information criterion, and the weighted Bayesian information criterion, ^21 and the sum of the relative mean square root error (percentage RMSRE); see Supplemental Material ). Model 1 was described using a set of ODEs representing the following: the amount of pitavastatin (X = substrate (S) or pitavastatin (P)) and eltrombopag (X = inhibitor (I) or eltrombopag (E)) in the medium (X 1), the amount bound to transporter (X 2), and the intracellular amount (X 3). Passive rate constants for movement into and out of the cell (k f.X and k bX, respectively) as well as uptake transporter‐mediated rate constants for association to the transporter (k aX) and dissociation (k dX) and translocation (k tX) from the transporter into the medium and cell, respectively. Metabolism of pitavastatin in the cell was through an elimination rate constant (k e). The sets of ODEs for all the models (models 1–4; Table 1 ) tested for structural identifiability and used for parameter estimation are included in the Supplemental Material .
Parameter estimation was conducted within Monolix 2018 R2 (Lixoft, Antony, France) for each concentration and experiment as an individual data set, where to ensure positivity, a log‐normal distribution was assumed for each parameter, with a proportional residual error model for the observations. Because of the large number of parameters to be estimated in the combined pitavastatin and eltrombopag mechanistic model, the initial estimates for pitavastatin and eltrombopag each were obtained for the micro‐rate constant models (no macro‐rate constant estimates could be obtained for eltrombopag alone for transporter‐mediated uptake).
Hepatocyte Incubations. 0.4 mL of hepatocytes was diluted 1:1 with Leibovitz either containing DMSO blank (0.1 % for pitavastatin or 0.25 % for eltrombopag alone) or eltrombopag at 90 nmol/mL and pre-incubated at 1.5x10^6 cells/mL for 15 min at 37 °C in 7 mL glass scintillation vials (PerkinElmer, Vasby, Sweden) in a shaking water bath (Grant Instruments, Cambridge, UK). Pitavastatin was dissolved and serially diluted in DMSO to give 0.12, 0.4, 1.2, 4, 12 and 40 µmol/mL, and then diluted 400-fold into 37 °C Leibovitz L15 medium. […]

SMILES: O=C(O)C[C@H](O)C[C@H](O)/C=C/c1c(C2CC2)nc2ccccc2c1-c1ccc(F)cc1 [pitavastatin, pitavastatin calcium]
- DV (pitavastatin uptake into hepatocytes) (ID 23, AMT 1, TIME 20, DVID 2): 6.95
- DV (pitavastatin uptake into hepatocytes) (ID 23, AMT 1, TIME 25, DVID 2): 7.41
- DV (pitavastatin uptake into hepatocytes) (ID 23, AMT 1, TIME 45, DVID 2): 6.87
- DV (pitavastatin uptake into hepatocytes) (ID 24, AMT 1, TIME 15.25, DVID 2): 1.01
- DV (pitavastatin uptake into hepatocytes) (ID 24, AMT 1, TIME 15.5, DVID 2): 1.32
- DV (pitavastatin uptake into hepatocytes) (ID 24, AMT 1, TIME 16, DVID 2): 2.01
- DV (pitavastatin uptake into hepatocytes) (ID 24, AMT 1, TIME 17, DVID 2): 3.12
- DV (pitavastatin uptake into hepatocytes) (ID 24, AMT 1, TIME 20, DVID 2): 3.79
- DV (pitavastatin uptake into hepatocytes) (ID 24, AMT 1, TIME 25, DVID 2): 4.34
- DV (pitavastatin uptake into hepatocytes) (ID 24, AMT 1, TIME 45, DVID 2): 3.81
- DV (pitavastatin uptake into hepatocytes) (ID 25, AMT 3, TIME 15.25, DVID 2): 2.77
- DV (pitavastatin uptake into hepatocytes) (ID 25, AMT 3, TIME 15.5, DVID 2): 3.9
- DV (pitavastatin uptake into hepatocytes) (ID 25, AMT 3, TIME 16, DVID 2): 5.45
- DV (pitavastatin uptake into hepatocytes) (ID 25, AMT 3, TIME 17, DVID 2): 6.15
- DV (pitavastatin uptake into hepatocytes) (ID 25, AMT 3, TIME 20, DVID 2): 8.63
- DV (pitavastatin uptake into hepatocytes) (ID 25, AMT 3, TIME 25, DVID 2): 8.51
- DV (pitavastatin uptake into hepatocytes) (ID 25, AMT 3, TIME 45, DVID 2): 8.88
- DV (pitavastatin uptake into hepatocytes) (ID 26, AMT 3, TIME 15.25, DVID 2): 7.14
- DV (pitavastatin uptake into hepatocytes) (ID 26, AMT 3, TIME 15.5, DVID 2): 9.19
- DV (pitavastatin uptake into hepatocytes) (ID 26, AMT 3, TIME 16, DVID 2): 12.88
- DV (pitavastatin uptake into hepatocytes) (ID 26, AMT 3, TIME 17, DVID 2): 12.66
- DV (pitavastatin uptake into hepatocytes) (ID 26, AMT 3, TIME 20, DVID 2): 19.85
- DV (pitavastatin uptake into hepatocytes) (ID 26, AMT 3, TIME 25, DVID 2): 21.39
- DV (pitavastatin uptake into hepatocytes) (ID 26, AMT 3, TIME 45, DVID 2): 21.78
- DV (pitavastatin uptake into hepatocytes) (ID 27, AMT 3, TIME 15.25, DVID 2): 3.01
- DV (pitavastatin uptake into hepatocytes) (ID 27, AMT 3, TIME 15.5, DVID 2): 3.97
- DV (pitavastatin uptake into hepatocytes) (ID 27, AMT 3, TIME 16, DVID 2): 5.7
- DV (pitavastatin uptake into hepatocytes) (ID 27, AMT 3, TIME 17, DVID 2): 7.64
- DV (pitavastatin uptake into hepatocytes) (ID 27, AMT 3, TIME 20, DVID 2): 9.22
- DV (pitavastatin uptake into hepatocytes) (ID 27, AMT 3, TIME 25, DVID 2): 11.17
- DV (pitavastatin uptake into hepatocytes) (ID 27, AMT 3, TIME 45, DVID 2): 9.03
- DV (pitavastatin uptake into hepatocytes) (ID 28, AMT 10, TIME 15.25, DVID 2): 8.66
- DV (pitavastatin uptake into hepatocytes) (ID 28, AMT 10, TIME 15.5, DVID 2): 11.6
- DV (pitavastatin uptake into hepatocytes) (ID 28, AMT 10, TIME 16, DVID 2): 13.7
- DV (pitavastatin uptake into hepatocytes) (ID 28, AMT 10, TIME 17, DVID 2): 20.56
- DV (pitavastatin uptake into hepatocytes) (ID 28, AMT 10, TIME 20, DVID 2): 22.94
- DV (pitavastatin uptake into hepatocytes) (ID 28, AMT 10, TIME 25, DVID 2): 25.07
- DV (pitavastatin uptake into hepatocytes) (ID 28, AMT 10, TIME 45, DVID 2): 27.58
- DV (pitavastatin uptake into hepatocytes) (ID 29, AMT 10, TIME 15.25, DVID 2): 20.13
- DV (pitavastatin uptake into hepatocytes) (ID 29, AMT 10, TIME 15.5, DVID 2): 27.47
- DV (pitavastatin uptake into hepatocytes) (ID 29, AMT 10, TIME 16, DVID 2): 37.04
- DV (pitavastatin uptake into hepatocytes) (ID 29, AMT 10, TIME 17, DVID 2): 47.38
- DV (pitavastatin uptake into hepatocytes) (ID 29, AMT 10, TIME 20, DVID 2): 54.85
- DV (pitavastatin uptake into hepatocytes) (ID 29, AMT 10, TIME 25, DVID 2): 67.61
- DV (pitavastatin uptake into hepatocytes) (ID 29, AMT 10, TIME 45, DVID 2): 56.74
- DV = amount of measured pitavastatin and/or eltrombopag (ID 29, pitavastatin AMT 10 nmol at TIME 15, TIME 16 min): 37.04 nmol
- DV = amount of measured pitavastatin and/or eltrombopag (ID 29, pitavastatin AMT 10 nmol at TIME 15, TIME 17 min): 47.38 nmol
- DV = amount of measured pitavastatin and/or eltrombopag (ID 29, pitavastatin AMT 10 nmol at TIME 15, TIME 20 min): 54.85 nmol
- DV = amount of measured pitavastatin and/or eltrombopag (ID 29, pitavastatin AMT 10 nmol at TIME 15, TIME 25 min): 67.61 nmol
- DV = amount of measured pitavastatin and/or eltrombopag (ID 29, pitavastatin AMT 10 nmol at TIME 15, TIME 45 min): 56.74 nmol
- DV (pitavastatin uptake into hepatocytes) (ID 30, AMT 10, TIME 15.25, DVID 2): 10.53
- DV (pitavastatin uptake into hepatocytes) (ID 30, AMT 10, TIME 15.5, DVID 2): 12.06
- DV (pitavastatin uptake into hepatocytes) (ID 30, AMT 10, TIME 16, DVID 2): 17.35
- DV (pitavastatin uptake into hepatocytes) (ID 30, AMT 10, TIME 17, DVID 2): 21.4
- DV (pitavastatin uptake into hepatocytes) (ID 30, AMT 10, TIME 20, DVID 2): 28.45
- DV (pitavastatin uptake into hepatocytes) (ID 30, AMT 10, TIME 25, DVID 2): 34.14
- DV (pitavastatin uptake into hepatocytes) (ID 30, AMT 10, TIME 45, DVID 2): 28.9
- DV = amount of measured pitavastatin and/or eltrombopag (ID 30, pitavastatin AMT 10 nmol at TIME 15, TIME 15.25 min): 10.53 nmol
- DV = amount of measured pitavastatin and/or eltrombopag (ID 30, pitavastatin AMT 10 nmol at TIME 15, TIME 15.5 min): 12.06 nmol
- DV = amount of measured pitavastatin and/or eltrombopag (ID 30, pitavastatin AMT 10 nmol at TIME 15, TIME 16 min): 17.35 nmol
- DV = amount of measured pitavastatin and/or eltrombopag (ID 30, pitavastatin AMT 10 nmol at TIME 15, TIME 17 min): 21.4 nmol
- DV = amount of measured pitavastatin and/or eltrombopag (ID 30, pitavastatin AMT 10 nmol at TIME 15, TIME 20 min): 28.45 nmol
- DV = amount of measured pitavastatin and/or eltrombopag (ID 30, pitavastatin AMT 10 nmol at TIME 15, TIME 25 min): 34.14 nmol
- DV = amount of measured pitavastatin and/or eltrombopag (ID 30, pitavastatin AMT 10 nmol at TIME 15, TIME 45 min): 28.9 nmol
- DV (pitavastatin uptake into hepatocytes) (ID 31, AMT 30, TIME 15.25, DVID 2): 26.63
- DV (pitavastatin uptake into hepatocytes) (ID 31, AMT 30, TIME 15.5, DVID 2): 31.4
- DV (pitavastatin uptake into hepatocytes) (ID 31, AMT 30, TIME 16, DVID 2): 43.67
- DV (pitavastatin uptake into hepatocytes) (ID 31, AMT 30, TIME 17, DVID 2): 56.57
- DV (pitavastatin uptake into hepatocytes) (ID 31, AMT 30, TIME 20, DVID 2): 70.75
- DV (pitavastatin uptake into hepatocytes) (ID 31, AMT 30, TIME 25, DVID 2): 59.98
- DV (pitavastatin uptake into hepatocytes) (ID 31, AMT 30, TIME 45, DVID 2): 87.76
- DV = amount of measured pitavastatin and/or eltrombopag (ID 31, pitavastatin AMT 30 nmol at TIME 15, TIME 15.25 min): 26.63 nmol
- DV = amount of measured pitavastatin and/or eltrombopag (ID 31, pitavastatin AMT 30 nmol at TIME 15, TIME 15.5 min): 31.4 nmol
- DV = amount of measured pitavastatin and/or eltrombopag (ID 31, pitavastatin AMT 30 nmol at TIME 15, TIME 16 min): 43.67 nmol
- DV = amount of measured pitavastatin and/or eltrombopag (ID 31, pitavastatin AMT 30 nmol at TIME 15, TIME 17 min): 56.57 nmol
- DV = amount of measured pitavastatin and/or eltrombopag (ID 31, pitavastatin AMT 30 nmol at TIME 15, TIME 20 min): 70.75 nmol
